Data as given in patent publication US11136409B2, “Compositions and methods for identification, assessment, prevention, and treatment of AML using USP10 biomarkers and modulators” (Dana-Farber Cancer Institute, Inc., priority 2016, dated 2021).

Assays:
Ba/F3-FLT3-ITD cells = assay: Proliferation of Ba/F3-FLT3-ITD cells; format: cell-based, murine
Description: Nomo-1, P31-FUJ, and NB4 were obtained from Dr. Gary Gilliland. MV4, 11 cells were obtained from Dr. Anthony Letai. Hel, K562, THP, U937, TF-1 and K052 cells were purchased from the American Type Culture Collection (ATCC) (Manassas, Va., USA). […] Cell lines were submitted for cell line authentication and were authenticated within 6 months of manuscript preparation through cell line short tandem repeat (STR) profiling (DDC Medical, Fairfield, Ohio and Molecular Diagnostics Laboratory, Dana Farber Cancer Institute). […] PBMCs were generously provided by Dr. Steven Treon and Dr. Guang Yang.
The CellTiter-Glo® assay (Promega, Madison, Wis.) was used for proliferation studies and carried out according to manufacturer instructions. Cell viability is reported as percentage of control (untreated) cells, and error bars represent the standard error of the mean for each data point.

[1] = tested on: Ba/F3-FLT3-ITD cells expressing the TKD point mutations; assay: Growth of Ba/F3-FLT3-ITD cells expressing TKD point mutations; format: cell-based, murine; conditions: approximately 24 hr treatment
HEK 293T cells = assay: FLT3 degradation in transfected HEK 293T cells; format: cell-based, human; conditions: 24 h treatment
[2] = tested on: Ba/F3-FLT3-ITD, MOM13-luc+, and MOLM14 cells; conditions: HBX19818 with midostaurin or crenolanib, fixed-ratio; CI less than 1 = synergy; 25-90% growth inhibition (50-90% for MOLM14)

CN(CCCNC(=O)c1ccc2nc3c(c(Cl)c2c1)CCCC3)Cc1ccccc1 [HBX19818, reference compound]
Therapeutic window compared to parental Ba/F3 cells (Ba/F3-FLT3-ITD cells): ~2 fold | Potency against TKD point mutants versus Ba/F3-FLT3-ITD [1]: equipotent | Concentration needed for FLT3 degradation relative to mutant FLT3-driven cells (HEK 293T cells): approximately 2 fold | Combination index (CI) analysis [2]: synergistic anti-proliferative effects
